In publication PMC6272913, “Synthesis of Bioactive 2-(Arylamino)thiazolo[5,4-f]-quinazolin-9-ones via the Hügershoff Reaction or Cu- Catalyzed Intramolecular C-S Bond Formation” (Molecules, 2016) one finds IC50 data, which are given here for 1 compound.

One assay deals with DYRK1A (Rattus norvegicus, UniProt Q63470). The experiment in a line: DYRK1A in vitro kinase assay (Woodtide). The class given is biochemical. The conditions noted are these: 15 μM ATP, 30 min at 30 °C, triplicate; >10 = less than 50% inhibition at 10 µM.
Another assay addresses T1, CDK5/p25 (Homo sapiens, UniProt Q00535).
T1 construct: made in house
The experiment in a line: CDK5/p25 in vitro kinase assay (histone H1, [γ-33P] ATP). The class given is biochemical.

In general, IC50 refers to the midpoint of a concentration-inhibition curve. Low values mean inhibition by little substance, high ones a need for much substance. In the case of `COc1ccc2c(c1)[nH]c1c(C)nccc12` [Harmine, reference compound], the concentration for half-maximal inhibition (IC50) against DYRK1A was 29 nM; on CDK5/p25 it was greater than 10000 nM.
